Data from patent EP2128158A1, “Heterocyclic cyclopropyl-substituted FXR binding compounds” (Phenex Pharmaceuticals AG, priority 2008, dated 2009).

Sequences of proteins named here, by UniProt entry; tags and fusion partners are left off. A change or cut given only in a name is not applied to a line headed by its entry.
UniProt Q96RI1: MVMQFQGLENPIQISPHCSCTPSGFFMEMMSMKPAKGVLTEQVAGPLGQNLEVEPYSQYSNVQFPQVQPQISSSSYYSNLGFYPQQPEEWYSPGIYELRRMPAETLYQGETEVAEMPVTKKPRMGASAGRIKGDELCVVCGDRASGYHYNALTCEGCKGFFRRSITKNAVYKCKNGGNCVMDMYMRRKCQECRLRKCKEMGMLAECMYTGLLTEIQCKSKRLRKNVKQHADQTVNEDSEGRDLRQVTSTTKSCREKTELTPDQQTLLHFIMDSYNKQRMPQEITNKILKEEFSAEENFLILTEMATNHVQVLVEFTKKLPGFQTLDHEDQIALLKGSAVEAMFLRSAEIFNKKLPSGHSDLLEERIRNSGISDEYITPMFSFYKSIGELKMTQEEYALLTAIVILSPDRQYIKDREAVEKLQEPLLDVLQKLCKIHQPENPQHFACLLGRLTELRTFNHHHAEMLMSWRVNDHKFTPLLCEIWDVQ

Target: T1, full length human FXR (Homo sapiens, UniProt Q96RI1)
T1 construct: The full length human FXR (NM_005123) was cloned into pTRexDest30; expressed in transfected cells
T1 sequence (Q96RI1 1-472 isoform Q96RI1-2): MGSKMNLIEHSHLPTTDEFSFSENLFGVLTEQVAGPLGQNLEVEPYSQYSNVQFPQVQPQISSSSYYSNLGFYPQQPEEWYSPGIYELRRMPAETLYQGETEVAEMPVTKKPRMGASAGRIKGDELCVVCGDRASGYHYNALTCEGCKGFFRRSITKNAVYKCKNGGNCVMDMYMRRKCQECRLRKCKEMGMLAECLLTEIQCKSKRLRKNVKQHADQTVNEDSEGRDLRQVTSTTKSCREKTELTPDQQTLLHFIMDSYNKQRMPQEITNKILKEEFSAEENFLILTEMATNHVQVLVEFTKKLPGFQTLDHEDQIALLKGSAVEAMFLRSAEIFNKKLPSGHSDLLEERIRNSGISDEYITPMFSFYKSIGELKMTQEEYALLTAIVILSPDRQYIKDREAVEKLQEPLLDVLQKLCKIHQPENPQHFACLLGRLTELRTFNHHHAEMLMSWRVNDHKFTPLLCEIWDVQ
Assay: Direct reporter (DR) gene assay in stably transfected HEK293 cells (D2IV3), luciferase
Type: cell-based
Conditions: 100nM, compared to cells grown in presence of DMSO as a vehicle
Text: In the direct reporter gene assay, HEK293 cells, obtained from DSMZ (German Collection of Microorganisms and Cell Cultures, Braunschweig, Germany) were stably transfected with pTRexDest30 (Invitrogen) derivative pTRexDest30-hFXR and pGL2promoter (Promega) derivative pGL2promoter-2xIBABP-RE. The full length human FXR (NM_005123) was cloned into pTRexDest30 according to the manufacturer protocol for the Gateway system (Invitrogen). The FXR response elements cccaGGGTGAaTAACCTcggggctctgtccctccaatcccaGGGTGAaTAACCTcggg were derived from the human IBABP-P promoter (Grober et al. 1999, JBC, 174, pp.29749-29754) and cloned into pGL2promoter. […] For the direct reporter gene assays, D2IV3 cells were grown in MEM with L-Glutamine and Earle's BSS supplemented with 10% fetal bovine serum, 0.1mM nonessential amino acids, 1mM sodium pyruvate, and 100units Penicilin/[…] per ml at 37°C in 5% CO2. Medium and supplements were obtained from Invitrogen. For the assay, 5x10^5 cells were plated per well in 96well plates in 100µl per well minimum essential medium (same composition as above) incubated at 37°C in 5% CO2. The following day the cells were >90% confluence. […] Cells were incubated for additional 16 hours before firefly luciferase activity was measured. […]

- induction of luciferase activity: 8 fold
SMILES: CC(C)c1onc(-c2c(Cl)cccc2Cl)c1COc1ccc(/C=C/c2cccc(C(=O)O)c2)c(Cl)c1 [GW4064, reference compound]
